By UniProt entry, the sequences of proteins in these tests, tags left out.
UniProt P21554, whole entry: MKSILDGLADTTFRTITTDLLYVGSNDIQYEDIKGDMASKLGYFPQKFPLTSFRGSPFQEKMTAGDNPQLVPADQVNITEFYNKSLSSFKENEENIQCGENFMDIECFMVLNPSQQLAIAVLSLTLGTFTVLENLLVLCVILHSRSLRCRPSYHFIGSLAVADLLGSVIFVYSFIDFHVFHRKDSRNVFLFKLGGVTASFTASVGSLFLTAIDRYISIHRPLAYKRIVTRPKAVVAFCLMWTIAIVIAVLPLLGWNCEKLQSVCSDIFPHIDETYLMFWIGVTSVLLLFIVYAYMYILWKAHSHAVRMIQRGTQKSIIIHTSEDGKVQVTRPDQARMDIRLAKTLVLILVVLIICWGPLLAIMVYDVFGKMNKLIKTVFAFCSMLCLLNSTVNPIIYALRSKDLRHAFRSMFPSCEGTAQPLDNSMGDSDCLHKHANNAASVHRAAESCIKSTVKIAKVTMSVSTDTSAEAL

According to patent publication US20070203183A1, “Diaryl piperidines as CB1 modulators” (Schering Corporation, priority 2006, published 2007):

Target: cannabinoid CB1 (Homo sapiens, UniProt P21554)
Test: Competition binding assay for cannabinoid CB1 affinity (3H-CP55,940 displacement, membranes)
Settings: read-out: Ki values; competition with 0.5 nM 3H-CP55,940; Ki by Cheng-Prusoff; approximate values; receptor subtype not given

O=C(NC[C@@H]1CC[C@@H](c2ccc(Cl)cc2Cl)N(c2ccc(Cl)cc2)C1)c1ccc(F)cc1
Ki: 7 nM
